From PubChem BioAssay AID1634 (National Center for Advancing Translational Sciences (NCATS), 2009)
The entries are a selection whose mix differs from that of the whole data set. Calls of active or inactive are those of the source. The call rests on the fitted dose curve; in most records, active means well fitted inhibition curve with a large enough effect; inconclusive means small, poorly fitted or top-dose-only effect; inactive means no such curve, though single readings can be large or run the other way.
Further: nearly all actives have a fitted effect of over 60% in size.
Potency means the concentration at half of the fitted maximal effect.

Protein sequences, listed by entry. Tags and fused reporters are not part of them.
UniProt P14618, whole entry, looked up: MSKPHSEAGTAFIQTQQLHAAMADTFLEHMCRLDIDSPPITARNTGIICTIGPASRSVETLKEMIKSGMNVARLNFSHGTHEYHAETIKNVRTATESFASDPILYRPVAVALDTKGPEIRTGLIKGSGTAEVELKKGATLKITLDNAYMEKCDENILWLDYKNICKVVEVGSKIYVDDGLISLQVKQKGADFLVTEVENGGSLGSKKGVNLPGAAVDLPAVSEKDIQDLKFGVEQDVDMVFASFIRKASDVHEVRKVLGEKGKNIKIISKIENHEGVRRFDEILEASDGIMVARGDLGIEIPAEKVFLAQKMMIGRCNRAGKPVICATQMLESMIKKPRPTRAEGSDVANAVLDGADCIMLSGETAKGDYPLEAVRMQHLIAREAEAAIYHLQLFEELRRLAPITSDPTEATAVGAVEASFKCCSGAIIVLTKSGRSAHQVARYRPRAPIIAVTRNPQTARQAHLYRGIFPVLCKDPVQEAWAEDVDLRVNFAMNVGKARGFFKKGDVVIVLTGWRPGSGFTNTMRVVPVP

These compounds were tested against Pyruvate kinase PKM (Homo sapiens) (UniProt P14618) (assay: qHTS Assay for Inhibitors of Human Muscle isoform 2 Pyruvate Kinase). Conditions: purified PKM2, ATP generation, Kinase-Glo luminescence.
Method: NIH Chemical Genomics Center [NCGC] Matthew G. Vander Heiden, M.D., Ph.D. [Harvard Medical School, 77 Avenue Louis Pasteur, Boston, MA 02115] […] ATP generation was detected in a coupled reaction by luciferase-mediated luminescence, an ATP-dependent process. […] The enzyme was assayed at an intermediate level of activity to screen for both inhibitors and activators.
NCGC Assay Protocol Summary: Three uL of substrate mix (at r.t.) in assay buffer (50 mM Imidazole pH7.2, 50 mM KCl, 7 mM MgCl2, 0.01% Tween 20, 0.05% BSA) was dispensed into white solid bottom 1,536 well microtiter plates so that the final concentrations of substrates in the assay were 0.1 mM ADP and 0.5 mM PEP. 23 nL of compound were delivered by a pin tool and 1 uL of enzyme mix in assay buffer (4 degree Celsius) was added. Plates were incubated at room temperature for 1 hour. Two uL of detection mix (Kinase-Glo, Promega; at 4 degree Celsius protected from light) was added and luminescence read by a ViewLux (Perkin Elmer) at 5 second exposure/plate. Data were normalized to the uninhibited and AC100 inhibition (no enzyme). To monitor activation, the first column contained a titration of the activator, NCGC00031955-01 (16-point 1:2 dilutions in duplicate starting at 57 uM) and the first 16 rows of column 4 contained 57 uM of NCGC00031955-01.
O=P(Nc1nccs1)(c1ccccc1)c1nc2ccccc2s1 (stereo unspecified) was tested, and the Potency was active: 10 µM.
